Values of other authors, collected in patent publication US20240254115A1 (ACONDICIONAMIENTO TARRASENSE, priority 2021, published 2024).

The chains behind the UniProt entries cited, without tags or fusion partners.
UniProt Q99720, whole entry: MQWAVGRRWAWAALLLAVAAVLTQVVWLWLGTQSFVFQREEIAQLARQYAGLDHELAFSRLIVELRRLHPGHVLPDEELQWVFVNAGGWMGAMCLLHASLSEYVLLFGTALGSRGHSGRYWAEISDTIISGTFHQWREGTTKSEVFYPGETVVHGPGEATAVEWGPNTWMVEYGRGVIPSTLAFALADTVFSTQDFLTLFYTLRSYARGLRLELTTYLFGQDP

Molecular target: sigma-1 (σ1) site (Homo sapiens, UniProt Q99720)
Conditions: background statement; cited from earlier work

(+)-SKF-10047
affinity for the sigma-1 (σ1) site: nanomolar affinity
